The numbers were not newly measured in patent US12521377B2, “Uses of (+)-B-dihydrotetrabenazine in methods of treating movement disorder” (ADEPTIO PHARMACEUTICALS LIMITED, priority 2017, dated 2026), which cites them from elsewhere.

Sequences of proteins named here, by UniProt entry; tags and fusion partners are left off.
UniProt Q01827, whole entry: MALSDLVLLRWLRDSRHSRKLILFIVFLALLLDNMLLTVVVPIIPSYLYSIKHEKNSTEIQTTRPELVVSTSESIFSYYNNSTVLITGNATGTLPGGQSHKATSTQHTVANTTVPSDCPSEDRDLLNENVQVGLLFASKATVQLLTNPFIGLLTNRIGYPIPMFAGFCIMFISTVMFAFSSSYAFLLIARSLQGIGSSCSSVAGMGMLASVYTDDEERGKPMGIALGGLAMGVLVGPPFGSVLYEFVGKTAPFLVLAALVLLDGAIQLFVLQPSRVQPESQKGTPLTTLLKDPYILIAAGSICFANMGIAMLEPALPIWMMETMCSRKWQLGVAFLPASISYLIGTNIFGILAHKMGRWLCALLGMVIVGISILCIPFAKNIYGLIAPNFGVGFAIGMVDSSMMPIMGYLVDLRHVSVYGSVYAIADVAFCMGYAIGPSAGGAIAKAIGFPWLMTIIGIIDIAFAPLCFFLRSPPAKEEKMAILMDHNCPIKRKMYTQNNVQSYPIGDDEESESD
UniProt Q05940, whole entry: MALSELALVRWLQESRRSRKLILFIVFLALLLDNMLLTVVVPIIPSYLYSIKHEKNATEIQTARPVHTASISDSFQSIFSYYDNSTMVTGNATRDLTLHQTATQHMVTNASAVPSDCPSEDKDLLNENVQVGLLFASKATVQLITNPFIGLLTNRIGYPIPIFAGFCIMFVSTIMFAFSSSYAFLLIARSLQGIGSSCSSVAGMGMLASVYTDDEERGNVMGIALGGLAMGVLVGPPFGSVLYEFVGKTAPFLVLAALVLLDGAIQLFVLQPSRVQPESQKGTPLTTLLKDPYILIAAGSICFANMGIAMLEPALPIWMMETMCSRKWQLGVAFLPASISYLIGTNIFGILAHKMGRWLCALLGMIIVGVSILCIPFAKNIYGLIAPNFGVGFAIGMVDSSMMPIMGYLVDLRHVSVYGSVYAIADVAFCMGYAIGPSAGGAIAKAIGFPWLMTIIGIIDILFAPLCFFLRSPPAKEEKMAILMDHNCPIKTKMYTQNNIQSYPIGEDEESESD

Data set [1] deals with VMAT2 (Rattus norvegicus, UniProt Q01827). Particulars: comparison among the eight dihydrotetrabenazine isomers; cited from earlier work.
The target in data set [2] is VMAT2 (Homo sapiens, UniProt Q05940). Particulars: cited from earlier work.

Regarding `COc1cc2c(cc1OC)[C@H]1C[C@@H](O)[C@H](CC(C)C)CN1CC2` [(+)-α-dihydrotetrabenazine], the “VMAT2 binding activity” value in data set [1] is on record as “most active”.

As for `COc1cc2c(cc1OC)[C@H]1C[C@H](O)[C@H](CC(C)C)CN1CC2` [(+)-β-dihydrotetrabenazine, (S,R,R)-3-isobutyl-9,10-dimethyloxy-1,3,4,5,7,11b-hexahydro-2H-pyrido[2,1-a]isoquinolin-2-ol], the “activity as a VMAT2 binding agent” value in data set [2] is given as “significantly less active than the (+)-α-dihydrotetrabenazine isomer”.

On to `COc1cc2c(cc1OC)[C@@H]1C[C@H](O)[C@@H](CC(C)C)CN1CC2` [(−)-α-dihydrotetrabenazine], for which the “activity as a VMAT2 binding agent” value in data set [2] was “essentially active”.
